Binding of CDR-mutated scFvs to a peptide of the spike HR2 region

Data: MIT Lincoln Laboratory AlphaSeq set, Li et al. 2023, doi:10.1038/s41467-023-39022-2, as distributed in FLAb.

Target: peptide PDVDLGDISGINAS, taken from heptad repeat 2 (HR2) of SARS-CoV-2 spike.

Parent scFv Ab-14: VH joined to VL by a (GGGGS)3 linker. Changes lie in the heavy chain CDRs alone.
VH: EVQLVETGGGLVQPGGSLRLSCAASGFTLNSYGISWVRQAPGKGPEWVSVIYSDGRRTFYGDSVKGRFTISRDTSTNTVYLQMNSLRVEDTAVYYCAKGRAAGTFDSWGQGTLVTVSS
VL: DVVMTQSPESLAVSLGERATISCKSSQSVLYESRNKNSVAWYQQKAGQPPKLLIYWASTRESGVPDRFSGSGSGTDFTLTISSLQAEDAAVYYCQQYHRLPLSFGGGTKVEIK

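The parent was found by panning a naive human phage display library on the peptide. These sequences belong to a second round, designed from the earlier measurements on random variants of the parent. Several design methods are mixed in this list. Affinity was read by AlphaSeq, a pooled yeast mating assay with surface-displayed partners. After mating in shaken culture at 30 °C for 16 h, diploids were selected and their barcode pairs sequenced. Read counts were normalised to the haploid input and turned into Kd by a linear fit to BCL2-family pairs of known affinity, for each replicate. There are six technical replicates.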

Each variant is given by its three heavy chain CDRs, as the data file delimits them; those of the parent are GFTLNSYGIS, VIYSDGRRTFYGDSVK, GRAAGTFDS. This list holds designs with at most six substitutions. Numbers give log10(Kd / nM), so 0 is 1 nM and 3 is 1 µM. Smaller is tighter. An entry "ND" has no value in the source: the pair was not observed among the diploids in that replicate. This suggests poor binding but is not conclusive.

The variant GFNLNSYGIS, VIYSDGRRTFYVDSVK, GRTAGTFDS gave 1.62, 2.36, ND, 2.23, 2.49, 1.72.
The variant GFELNSYGIS, VIYSDGERTFYGDSVK, GRAAGTFDS gave 1.62, 0.82, 0.47, 1.88, 1.54, 1.46.
The variant GFTLNSYGIS, VIYSDGRRTFYPDSVK, GRAGGTFDE gave ND, ND, ND, ND, ND, ND.
The variant GFTLNSYGIS, VIYSDGRRTFYTDSVK, GMTAGTFDS gave 1.07, 0.37, 0.15, 0.57, 0.15, 0.62.
The variant GFELNEYGIS, VIYSDGRRTFYTDSVK, GRAAGTFDS gave 1.15, 0.74, 0.61, 1.71, 1.30, 0.53.
The variant GFDLNSYGIS, VIYSDGRRTFYSDSVK, GKVAGTFDS gave 0.14, -0.81, ND, 0.29, 0.19, -1.11.
The variant GFELNSYGIS, VIYSDGKRTFYADSVK, GRAAGTFDS gave 1.36, 0.92, 0.13, 1.12, 1.33, 0.35.
The variant GFTLNDYGIS, VIYSDGRRTFYGDSVK, GKAAGTFDS gave 1.32, 0.83, 1.58, 0.64, 1.54, 1.08; 0.79, 0.69, 0.38, 0.80, 0.26, 0.60.
The variant GFWLNSYGIS, VIYSDGRRTFYADSVK, GQTAGTFDS gave 1.60, ND, 1.22, 1.02, 0.67, 1.24.
The variant GFQLNSYGIS, VIYSDGRRTFYADQVK, GEAAGTFDS gave 0.67, 0.55, 0.13, 0.46, 1.28, 0.25.
The variant GFTLNEYGIS, VIYSDGRRTFYMDSVK, GRFAGTFDT gave 0.77, 0.98, 0.75, 0.62, 0.78, 0.63.
The variant GFSLNSYGIS, VIYSDGQRTFYVDSVK, GQAAGTFDS gave ND, 2.21, 2.60, ND, 2.08, 1.28.
The variant GFTLNSYGIS, VIYSDGRRTFYSDSVK, GSEAGTFDS gave -0.18, -0.16, -0.39, -0.20, 0.40, -0.29.
The variant GFDLNSYGIS, VIYSDGKRTFYGDSVK, GRIAGTFDS gave 0.32, 0.49, 0.74, 0.73, 0.29, 0.18.
The variant GFTLNDYGIS, VIYSDGRRTFYGDSVK, GRAAGTFVK gave ND, ND, ND, 2.51, ND, ND.
The variant GFELNSYGIS, VIYSDGRRTFYGDMVK, GRTAGTFDT gave 1.20, 0.43, 0.76, 0.26, 0.58, 0.79.
The variant GFTLNSYGIS, VIYSDGQRTFYIDSVK, GRVAGTFDT gave ND, ND, ND, ND, ND, ND.
The variant GFTLNSYGIS, VIYSDGRRTFYGDAVK, GHQAGQFDS gave ND, ND, ND, ND, 3.84, ND.
The variant GFDLNSYGIS, VIYSDGRRLFYGDDVK, GREAGTFDS gave 1.27, 0.87, 0.88, ND, ND, ND.
The variant GFDLNSYGIS, VIYSDGRRTFYIDSVK, GWAAGTFDA gave 0.71, 0.10, 0.90, 0.90, 0.65, 0.32.
The variant GFSLNSYGIS, VIYSDGRRTFYDDSVK, GSAAGTFDS gave 0.00, -0.14, -0.12, -0.09, 0.16, -0.16.
The variant GFTLNDYGIS, VIYSDGRRTFYTDSVK, GRFAGTFDA gave 0.44, 0.20, 0.33, 0.18, 0.56, 0.36.
The variant GFTLNDYGIS, VIYSDGRRTMYIDSVK, GRAAGTFIS gave 1.74, 0.83, 1.37, 0.84, 1.34, 1.63.
The variant GETLNEYGIS, VIYSDGRRTFYGDSVK, GRTAGTFDT gave ND, 0.87, 1.10, 0.28, 2.26, ND.
The variant GFTLNSYGIS, VIYSDGRRTFYKDSVK, GRSAGTFDS gave 1.20, ND, ND, ND, 1.49, ND.
The variant GFSLNSYGIS, VIYSDGRRTFYADTVK, GNAAGTFDS gave 0.40, 1.39, 0.50, 0.41, 1.01, 0.46.
The variant GFTLNDYGIS, VIYSDGRRTFYGNSVK, GDAAGTFDG gave 1.87, 2.73, 2.52, 1.26, ND, 1.64.
The variant GFTLNEYGIS, VIYSDGRRTFYTDSVK, GREAGTFIS gave ND, ND, ND, ND, ND, ND.
The variant GFSLNDYGIS, VIYSDGRRTFYGDTVK, GRTAGTFDS gave 0.08, 0.15, -0.18, -0.31, 0.05, 0.41.
The variant GFQLNEYGIS, VIYSDGRRTFYSDQVK, GRQAGTFDS gave -0.22, -0.48, -0.61, -0.69, -0.15, -0.14.
The variant GFTLNDYGIS, VIYSDGRRTQYIDSVK, GRAAGKFDS gave ND, ND, ND, ND, ND, ND.
The variant GFDLNSYGIS, VIYSDGRRTFYGDSVK, GRTAGSFDS gave 0.20, 0.50, 0.29, -0.30, 0.67, 0.66.
The variant GFTLNSKGIS, VIYADGRRTFYIDSVK, GRAAGTFRS gave ND, ND, ND, ND, ND, ND.
The variant GFTLNSYGIS, VIYSDGKRTFYADSVK, GRAAGTFDS gave 1.42, 0.87, 1.10, 1.33, 0.83, 1.59; 1.24, 0.68, 0.27, 0.69, 0.50, 0.72.
The variant MFDLNSYGIS, VIYSDGRRTFYGDSVK, GNEAGTFDS gave 1.60, 1.25, 1.77, 1.08, 0.95, 1.75.
The variant GFTLNSYGIS, VIYSDGRRTFYLDSVK, GRHAGTFDS gave ND, ND, ND, ND, ND, ND.
The variant GFDLNSYGIS, VIYSDGRRTFYKDSVK, GWTAGTFDS gave 0.24, 0.14, -0.42, -0.31, -0.17, 0.19.
The variant GFTLNSYGIS, VIYSDGRRTFYGDSVK, GQVAGTFDA gave 1.40, 1.66, 2.06, 1.16, 1.66, 2.28.
The variant GFVLNSYGIS, VIYSDGRRTFYADSVK, GQTAGTFDS gave 1.88, 1.64, 1.50, 1.19, 1.76, 1.65.
The variant GFTLNSYGIS, VIYSDGRRTHYYDSVK, GRAAGTFDS gave ND, ND, ND, ND, ND, ND.
The variant GFSLNEYGIS, VIYSDGRRTFYGDSVK, GRTAGKFDS gave ND, ND, ND, ND, ND, ND.

The 5 strongest on average among those seen in every replicate, once more:

CDR-H1,CDR-H2,CDR-H3,"log10 Kd, replicates"
GFQLNEYGIS,VIYSDGRRTFYSDQVK,GRQAGTFDS,"-0.22, -0.48, -0.61, -0.69, -0.15, -0.14"
GFTLNSYGIS,VIYSDGRRTFYSDSVK,GSEAGTFDS,"-0.18, -0.16, -0.39, -0.20, 0.40, -0.29"
GFSLNSYGIS,VIYSDGRRTFYDDSVK,GSAAGTFDS,"0.00, -0.14, -0.12, -0.09, 0.16, -0.16"
GFDLNSYGIS,VIYSDGRRTFYKDSVK,GWTAGTFDS,"0.24, 0.14, -0.42, -0.31, -0.17, 0.19"
GFSLNDYGIS,VIYSDGRRTFYGDTVK,GRTAGTFDS,"0.08, 0.15, -0.18, -0.31, 0.05, 0.41"

Nonspecific signal, from three strains lacking the peptide, appeared in 1% of pairings of all heavy chain designs, centred on 2.08 (5% of these signals below 0.84); values are not corrected for it. The range of this assay differs from that of the first round, and the authors advise against merging the two. The parent sequence was in this pool as ten entries: three were never detected, three once, and four in most replicates, with averages from 0.34 to 2.37. The authors' rule: three or more of the six replicates give a measured affinity, fewer mean a poor binder. Some sequences occur more than once in the pool; their replicates are listed entry by entry, parted by semicolons.